Twelve compounds from US7846934B2, “Furo[3,2-B] pyrrol-3-one derivatives and their use as cysteinyl proteinase inhibitors” (Amura Therapeutics Limited, priority 2007, dated 2010) can be followed below.

Amino acid sequences for entries named in this document (tags omitted). Residues count along the entry.
UniProt P43235, 115-329 limits assumed: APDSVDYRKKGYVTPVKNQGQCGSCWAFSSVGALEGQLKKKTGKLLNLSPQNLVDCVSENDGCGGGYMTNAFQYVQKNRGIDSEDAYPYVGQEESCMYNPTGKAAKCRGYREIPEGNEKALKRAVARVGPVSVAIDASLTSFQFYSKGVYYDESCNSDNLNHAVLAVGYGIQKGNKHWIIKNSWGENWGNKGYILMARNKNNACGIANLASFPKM

The target of the assay is Human recombinant cathepsin K (Homo sapiens, UniProt P43235). In words: In vitro cathepsin Ki inhibition measurements. It counts as biochemical. Conditions: read-out: Ki (nM) vs Human Cathepsin K, Table 2, prior art WO-A-02057270 examples.

As usually defined, the Ki is a dissociation constant, usually derived from enzyme kinetics or from competition with a known ligand. With `O=C(CCc1ccccc1)N[C@@H](CSCc1ccccc1)C(=O)N1CC[C@H]2OCC(=O)[C@H]21`, the Ki was > 20000 nM.

For the compound `O=C(CCc1ccccc1)N[C@@H](CC1CCCCC1)C(=O)N1CC[C@H]2OCC(=O)[C@H]21`, the inhibitory constant (Ki) was > 16000 nM.

Take `O=C(N[C@@H](Cc1ccc(F)cc1)C(=O)N1CC[C@H]2OCC(=O)[C@H]21)c1ccc(-c2cccs2)cc1`: the inhibitory constant (Ki) is > 17000 nM.

Consider `O=C(N[C@@H](Cc1ccccc1)C(=O)N1CC[C@H]2OCC(=O)[C@H]21)c1cc2ccccc2s1`, for which the inhibition constant (Ki) was > 2500 nM.

For the compound `O=C(N[C@@H](Cc1ccc(O)cc1)C(=O)N1CC[C@H]2OCC(=O)[C@H]21)c1cccc2ccccc12`, the inhibitory constant (Ki) was > 15000 nM.

Turning to `CC(C)C[C@H](NC(=O)N1CCOCC1)C(=O)N1CC[C@H]2OCC(=O)[C@H]21`, the Ki is > 1500 nM.

As to `CC(C)(C)c1ccc(C(=O)N[C@@H](Cc2ccc(F)cc2)C(=O)N2CC[C@H]3OCC(=O)[C@H]32)cc1`, the Ki is > 2500 nM.

Take `O=C(N[C@@H](Cc1ccccc1)C(=O)N1CC[C@H]2OCC(=O)[C@H]21)c1ccsc1`: the inhibitory constant (Ki) was > 4000 nM.

With `O=C(N[C@@H](CC1CCCC1)C(=O)N1CC[C@H]2OCC(=O)[C@H]21)c1ccsc1`, the Ki was > 1500 nM.

Consider `O=C(N[C@@H](Cc1ccc(O)cc1)C(=O)N1CC[C@H]2OCC(=O)[C@H]21)c1ccsc1`, for which the Ki is > 25000 nM.

In the case of `O=C(N[C@@H](Cc1ccccc1)C(=O)N1CC[C@H]2OCC(=O)[C@H]21)c1ccccc1`, the Ki was > 7500 nM.

Regarding `O=C(N[C@@H](CC1CCCCC1)C(=O)N1CC[C@H]2OCC(=O)[C@H]21)c1ccoc1`, the inhibitory constant (Ki) was > 6000 nM.
